From paper PMC2847038 (Hippocampus, 2010)
Marks after values point to notes of the source that are not given here.

Chains of the proteins cited; added tags and fusions are not shown.
UniProt P20272, whole entry: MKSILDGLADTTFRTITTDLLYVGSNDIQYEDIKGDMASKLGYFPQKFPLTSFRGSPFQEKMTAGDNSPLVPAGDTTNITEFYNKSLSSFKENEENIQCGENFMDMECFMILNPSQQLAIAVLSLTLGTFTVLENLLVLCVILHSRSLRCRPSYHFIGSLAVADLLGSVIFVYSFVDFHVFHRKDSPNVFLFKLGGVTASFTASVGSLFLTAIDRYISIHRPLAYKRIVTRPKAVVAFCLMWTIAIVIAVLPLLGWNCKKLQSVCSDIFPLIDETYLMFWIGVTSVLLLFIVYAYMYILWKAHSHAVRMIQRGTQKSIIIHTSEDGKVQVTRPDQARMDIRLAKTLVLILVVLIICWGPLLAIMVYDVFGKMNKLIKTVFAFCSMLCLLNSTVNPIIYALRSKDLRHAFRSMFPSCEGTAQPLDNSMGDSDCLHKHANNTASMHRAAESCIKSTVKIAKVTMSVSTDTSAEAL

Assays:
CB1 receptor [1] = molecular target: T1, CB1 receptor (Rattus norvegicus, UniProt P20272); test: CB1 receptor-mediated [^35S]GTPγS binding assay; type: biochemical, Sprague-Dawley rats; conditions: hippocampus membranes
CB1 receptor [2] = molecular target: T1, CB1 receptor; test: CB1 receptor binding assay; parameters: species or system Sprague-Dawley rats

Compound | Emax (maximal stimulation of ^35S-GTPγS binding) (CB1 receptor [1]; CON animals) | Emax (maximal stimulation of ^35S-GTPγS binding) (CB1 receptor [1]; VEx animals) | Bmax (CB1 receptor [2]; hippocampus membranes, sedentary control (CON) animals) | Bmax (CB1 receptor [2]; hippocampus membranes, voluntary exercise (VEx) animals, 8 days running wheel) | Bmax (CB1 receptor [2]; prefrontal cortex membranes, CON animals) | Bmax (CB1 receptor [2]; prefrontal cortex membranes, VEx animals)
Cc1c(C(=O)c2cccc3ccccc23)c2cccc3c2n1[C@H](CN1CCOCC1)CO3 [WIN 55,212-2] | 152.0 +/- 4.5 % baseline | 232.3 +/- 31.0 % baseline |  |  |  | 
CCCCCCC(C)(C)c1ccc([C@@H]2C[C@H](O)CC[C@H]2CCCO)c(O)c1 [^3H-CP55940] |  |  | 0.44 +/- 0.03 pmol/mg protein | 0.60 +/- 0.02* pmol/mg protein | 0.38 +/- 0.06 pmol/mg protein | 0.34 +/- 0.03 pmol/mg protein
